From patent US10787490B2, “Peptide inhibitors of interleukin-23 receptor and their use to treat inflammatory diseases” (Protagonist Therapeutics, Inc., priority 2015, dated 2020)

Tests used:
[1] = biological target: T1, Natural killer (NK) cells (Homo sapiens, UniProt Q5VWK5); assay: NK Cell Assay (IL-23-dependent IFNγ production); assay type: cell-based
T1 sequence (Q5VWK5 24-629): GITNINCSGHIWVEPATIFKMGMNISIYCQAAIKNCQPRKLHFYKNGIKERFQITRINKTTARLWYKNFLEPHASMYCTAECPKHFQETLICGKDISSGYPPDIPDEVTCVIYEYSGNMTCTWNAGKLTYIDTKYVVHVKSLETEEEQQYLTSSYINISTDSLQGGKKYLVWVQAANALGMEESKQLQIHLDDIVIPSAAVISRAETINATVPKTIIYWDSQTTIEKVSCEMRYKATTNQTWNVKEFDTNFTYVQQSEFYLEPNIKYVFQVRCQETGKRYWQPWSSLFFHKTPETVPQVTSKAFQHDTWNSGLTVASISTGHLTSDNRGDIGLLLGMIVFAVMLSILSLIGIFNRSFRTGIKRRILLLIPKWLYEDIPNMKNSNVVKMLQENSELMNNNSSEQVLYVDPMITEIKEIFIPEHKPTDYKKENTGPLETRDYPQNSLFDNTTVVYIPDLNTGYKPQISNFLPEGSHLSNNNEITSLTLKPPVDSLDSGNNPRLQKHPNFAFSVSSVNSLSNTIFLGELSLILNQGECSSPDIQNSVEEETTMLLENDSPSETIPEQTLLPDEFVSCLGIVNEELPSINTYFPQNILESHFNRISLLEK

[2] = DTT stability assay (redox stability); assay type: in vitro ADME; conditions: half-life, 0.5 mM DTT, room temperature; for DTT Stability: numeric
[3] = biological target: IL-23R-expressing DB cells (Homo sapiens, UniProt Q5VWK5); assay type: cell-based
[4] = biological target: human IL-23R (IL23R_huFC) (Homo sapiens, UniProt Q5VWK5)
Mouse IL-23R = biological target: T2, Mouse IL-23R (Mus musculus, UniProt Q8K4B4); assay: Mouse IL-23R Competitive Binding ELISA; conditions: read-out: Cross Reactivity (nM) ELISA mouse IL23R IL23
T2 sequence (Q8K4B4 24-374 limits assumed): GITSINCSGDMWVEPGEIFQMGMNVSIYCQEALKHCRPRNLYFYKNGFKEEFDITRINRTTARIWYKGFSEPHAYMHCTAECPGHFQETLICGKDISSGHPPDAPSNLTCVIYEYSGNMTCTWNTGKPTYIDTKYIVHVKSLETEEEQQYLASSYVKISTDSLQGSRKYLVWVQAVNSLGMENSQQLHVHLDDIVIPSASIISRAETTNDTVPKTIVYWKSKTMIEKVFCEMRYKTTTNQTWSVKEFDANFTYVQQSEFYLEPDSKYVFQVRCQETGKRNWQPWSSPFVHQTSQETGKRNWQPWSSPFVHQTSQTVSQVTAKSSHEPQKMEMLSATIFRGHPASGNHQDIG

[5] = Stability in simulated intestinal fluid (SIF); assay type: in vitro ADME
[6] = Stability in simulated gastric fluid (SGF); assay type: in vitro ADME
human IL6R = biological target: T3, human IL6R (Homo sapiens, UniProt P08887); assay: cell free ELISA for human IL6R (IL-6/IL-6R); assay type: binding; conditions: read-out: Selectivity (ELISA, nM) IL-6/IL-6R, IC50
T3 sequence (P08887 20-468): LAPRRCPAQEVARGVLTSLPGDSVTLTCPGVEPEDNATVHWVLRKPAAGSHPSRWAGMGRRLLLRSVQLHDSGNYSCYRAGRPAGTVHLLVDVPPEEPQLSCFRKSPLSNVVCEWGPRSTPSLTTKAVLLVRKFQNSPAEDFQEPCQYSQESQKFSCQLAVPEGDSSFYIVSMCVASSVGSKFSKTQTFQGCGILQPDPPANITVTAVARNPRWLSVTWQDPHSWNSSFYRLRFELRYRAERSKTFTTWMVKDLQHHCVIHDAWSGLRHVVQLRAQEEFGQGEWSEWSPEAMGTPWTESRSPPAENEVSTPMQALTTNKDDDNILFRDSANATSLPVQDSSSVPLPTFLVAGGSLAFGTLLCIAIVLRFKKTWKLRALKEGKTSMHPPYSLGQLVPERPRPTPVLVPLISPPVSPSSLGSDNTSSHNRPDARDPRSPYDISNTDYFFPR

[7] = Stability in human intestinal fluid; assay type: in vitro ADME
human IL-12Rβ1 = human IL-12Rβ1 (Homo sapiens, UniProt P42701); conditions: read-out: Selectivity (ELISA, nM) IL-23/IL-12Rβ1, IC50
[8] = test system: panel of 44 targets (GPCRs, transporters, ion channels); conditions: concentrations of up to 10 piM
[9] = read-out: Human IL-23R Activity (nM) Cell Assay pSTAT3 HTRF
[10] = read-out: Human IL-23R Activity (nM) ELISA huIL23R IL23
[11] = Table E13, IL-23 + IL-18 stimulated human NK cells, IFNγ, read-out: NK cell assay (nM), IC50

With “[Ac-[Pen]-QTWQ-[Pen]-[Phe(4-OMe)]-[2-Nal]-[α-MeLys]-[Lys(Ac)]-NN-NH2]2DIG [SEQ ID NO: 532]” as the substance, how does the IC50 ([1]; Table 14, IL-23 + IL-18 stimulated human NK cells, IFNγ, read-out: NK Cell assay (nM), IC50) read?
The IC50 was under 10 nM.

For “Ac-[Pen]-QTWQ-[Pen]-[Phe(4-Ome)]-[2-Nal]-[α-MeLys]-ENG-NH2”, which “DTT Stability” value [2] is on record?
The value was over 120 min.

Which IC50 [3, 9] does the source give for “Ac-CRDWQCYWHKFG-[AEP]-[(D)Lys]-OH [SEQ ID NO: 213]” here?
Its IC50 is under 250 nM.

And the IC50 [4, 10]?
The IC50 was under 250 nM.

With Hy-CRTWQCYWRKFG-NH2 [SEQ ID NO: 253] as the substance, how does the IC50 [1, 11] read?
Its IC50 is under 25 nM.

For “[D-Arg]-Cyclo-[[Abu]-QTWQC]-[Phe(4-2ae)]-[2-Nal]-[THP]-ENN-NH2”, which IC50 ([3]; thioether dimers, read-out: pStat3 HTRF) is on record?
The IC50 was under 10 nM.

For “Ac-Cyclo-[[Abu]-QTWQC]-[Phe(4-OMe)]-[2-Nal]-[-MeLys]-ENG-NH2”, which “DTT Stability” value [2] is on record?
Its value is over 120 min.

Which “DTT Stability” value [2] does the source give for “Ac-Cyclo-[[Abu]-RTWQQ-YWRKFG-[AEA]-[(D)Lys]-NH2” here?
Its value is over 120 min.

With Hy-CADWVCYWHTFG-NH2 [SEQ ID NO: 169] as the substance, how does the IC50 [3, 9] read?
The IC50 was 251 to 1000 nM.

What about the IC50 ([3]; read-out: pStat3 HTRF in nMoles) of the same substance?
The IC50 was 100 to 1000 nM.

What about the IC50 (Mouse IL-23R) of the same substance?
Its IC50 is over 25000 nM.

And the IC50 ([4]; read-out: ELISA IL23R/IL23 in nM)?
Its IC50 is 100 to 1000 nM.

And the IC50 [4, 10]?
Its IC50 is 251 to 1000 nM.

Which “DTT Stability (min)” value ([2]; class symbol) does the source give for Ac-CADWVWCYWHTFGA-+[Azt]-[(D)Lys]-NH2 here?
Its value is “* (* = 10-120 min)”.

With Hy-CSNWVCYWHTYG-NH2 [SEQ ID NO: 198] as the substance, how does the IC50 [3, 9] read?
The IC50 was under 250 nM.

And the IC50 [4, 10]?
The IC50 was under 250 nM.

With “[Ac-[Pen]-QTWQ-[Pen]-[Phe(4-CONH2)]-[2-Nal]-[α-MeLys]-[Lys(Ac)]-NN-NH2]2DIG [SEQ ID NO: 534]” as the substance, how does the “DTT Stability” value [2] read?
The value was over 120 min.

Which IC50 (Mouse IL-23R) does the source give for Hy-CRDWQCYWHKFG-NH2 [SEQ ID NO: 197] here?
The IC50 was over 25000 nM.

What about the IC50 [4, 10] of the same substance?
The IC50 was 251 to 1000 nM.

For “Ac-[Pen]-QTWQ-[Pen]-YW-[α-MeLeu]-ENG-NH2”, which “DTT Stability” value [2] is on record?
Its value is over 120 min.

What does the source list for Ac-CQTWQCYWRENG-NH2 [SEQ ID NO: 219]?
IC50 [3, 9]: < 250 nM; IC50 [4, 10]: < 250 nM

Which results are given for Ac-CADWVCYWHTFGER-NH2 [SEQ ID NO: 230]?
IC50 [3, 9]: < 250 nM; IC50 [4, 10]: < 250 nM

For “Ac-Cyclo-[[Abu]-QTWQC]-[Phe[4-(2-aminoethoxy)]-W-[α-MeLys]-ENG-NH2”, which “DTT Stability” value [2] is on record?
Its value is over 120 min.

Which “DTT Stability” value [2] does the source give for Ac-[[Pen]-QTWQ-[Pen]-YW-[hLeu]-ENG-NH2 here?
The value was over 120 min.

With Hy-CQTWVCYWHTYG-NH2 [SEQ ID NO: 93] as the substance, how does the IC50 [1, 11] read?
Its IC50 is under 25 nM.

Which IC50 ([3]; Table E31, class symbols, read-out: pStat3 HTRF) does the source give for “Ac-[Pen]-NTWQ-[Pen]-[Phe[4-(2-aminoethoxy)]-[2-Nal]-[4-amino-4-carboxy-tetrahydropyran]-[Lys(Ac)]—NN—NH2 [SEQ ID NO: 1185]” here?
The IC50 was under 10 nM.

And the IC50 ([3]; read-out: Cell assay (nM) Hu DB Cell (pSTAT3), IC50)?
The IC50 was 2 nM.

And the “Stability (t1/2, hr) SIF” value [5]?
The value was 33 h.

And the “SIF t1/2” value ([5]; Table E33)?
Its value is over 3 h.

And the “Stability (t1/2, hr) SGF” value [6]?
The value was 12 h.

What about the “SGF t1/2 (min)” value ([6]; Table E33) of the same substance?
The value was >180, min.

What about the IC50 ([1]; IFNγ produced by human NK cells exposed to IL-23, read-out: Cell assay (nM) Hu NK cell, IC50) of the same substance?
The IC50 was 3.9 nM.

And the IC50 (human IL6R)?
The IC50 was over 100000 nM.

And the “Stability (t1/2, hr) HIF” value [7]?
The value was 24 h.

What about the IC50 ([4]; read-out: ELISA (nM) Hu, IC50, IL-23/IL-23R competitive binding, human) of the same substance?
Its IC50 is 2 nM.

What about the IC50 ([4]; read-out: ELISA IL23R/IL23 in nMoles (IC50), non-cyclic peptides) of the same substance?
Its IC50 is 7200 nM.

And the IC50 ([4]; read-out: Human ELISA, Table E31)?
The IC50 was under 10 nM.

What about the IC50 (human IL-12Rβ1) of the same substance?
Its IC50 is over 100000 nM.

And the “activity in safety panel of 44 targets (change in target's activity greater than 25%)” value [8]?
Its value is “no activity”.

Which “DTT Stability” value [2] does the source give for Ac-CRTWECYWHEFG-NH2 [SEQ ID NO: 217] here?
The value was under 10 min.

Where two headings read alike, the source gives them in different places.
